ChEMBL document CHEMBL2218924, “A broad activity screen in support of a chemogenomic map for kinase signalling research and drug discovery” (Biochem J, 2013)
For some assays here: Shown are results outside the selection of strong results, which stands elsewhere. The list shows a part of the results, in another mix than the full data.

Sequences of proteins named here, by UniProt entry; tags and fusion partners are left off. A change or cut given only in a name is not applied to a line headed by its entry.
UniProt P24864, whole entry, looked up: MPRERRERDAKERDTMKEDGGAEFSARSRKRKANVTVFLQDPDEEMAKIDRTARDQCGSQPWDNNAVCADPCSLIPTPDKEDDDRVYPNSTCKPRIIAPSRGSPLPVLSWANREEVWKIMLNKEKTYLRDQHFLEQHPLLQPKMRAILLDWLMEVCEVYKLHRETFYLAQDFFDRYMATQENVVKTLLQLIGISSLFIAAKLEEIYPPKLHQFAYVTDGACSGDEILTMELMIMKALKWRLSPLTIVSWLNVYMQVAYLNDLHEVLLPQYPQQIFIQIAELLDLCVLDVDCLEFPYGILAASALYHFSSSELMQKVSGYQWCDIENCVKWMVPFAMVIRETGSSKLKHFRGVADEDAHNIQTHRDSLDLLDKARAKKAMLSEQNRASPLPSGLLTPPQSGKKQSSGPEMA
UniProt O96020, whole entry, looked up: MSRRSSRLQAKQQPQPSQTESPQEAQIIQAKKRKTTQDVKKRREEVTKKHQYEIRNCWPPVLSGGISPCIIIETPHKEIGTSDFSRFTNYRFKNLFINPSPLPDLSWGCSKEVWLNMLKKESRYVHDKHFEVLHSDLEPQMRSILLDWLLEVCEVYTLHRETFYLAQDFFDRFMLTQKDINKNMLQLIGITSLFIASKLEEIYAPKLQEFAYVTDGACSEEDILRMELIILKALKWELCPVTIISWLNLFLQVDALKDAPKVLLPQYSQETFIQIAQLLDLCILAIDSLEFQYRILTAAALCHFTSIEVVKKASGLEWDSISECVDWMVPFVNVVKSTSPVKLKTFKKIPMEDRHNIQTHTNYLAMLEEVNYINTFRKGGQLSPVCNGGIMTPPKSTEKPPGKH
UniProt Q13882, whole entry, looked up: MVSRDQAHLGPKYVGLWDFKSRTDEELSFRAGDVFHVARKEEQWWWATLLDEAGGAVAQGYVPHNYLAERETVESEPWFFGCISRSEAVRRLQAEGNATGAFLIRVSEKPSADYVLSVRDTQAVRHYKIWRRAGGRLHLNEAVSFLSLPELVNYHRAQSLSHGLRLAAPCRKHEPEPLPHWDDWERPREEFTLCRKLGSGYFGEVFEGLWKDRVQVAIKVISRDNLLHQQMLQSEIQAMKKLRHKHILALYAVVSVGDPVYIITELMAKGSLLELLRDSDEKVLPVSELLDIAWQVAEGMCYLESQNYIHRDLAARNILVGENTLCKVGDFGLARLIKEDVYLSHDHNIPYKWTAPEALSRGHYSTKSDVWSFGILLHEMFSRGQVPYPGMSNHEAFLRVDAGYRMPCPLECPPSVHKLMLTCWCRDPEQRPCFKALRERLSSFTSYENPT
UniProt P43250, whole entry, looked up: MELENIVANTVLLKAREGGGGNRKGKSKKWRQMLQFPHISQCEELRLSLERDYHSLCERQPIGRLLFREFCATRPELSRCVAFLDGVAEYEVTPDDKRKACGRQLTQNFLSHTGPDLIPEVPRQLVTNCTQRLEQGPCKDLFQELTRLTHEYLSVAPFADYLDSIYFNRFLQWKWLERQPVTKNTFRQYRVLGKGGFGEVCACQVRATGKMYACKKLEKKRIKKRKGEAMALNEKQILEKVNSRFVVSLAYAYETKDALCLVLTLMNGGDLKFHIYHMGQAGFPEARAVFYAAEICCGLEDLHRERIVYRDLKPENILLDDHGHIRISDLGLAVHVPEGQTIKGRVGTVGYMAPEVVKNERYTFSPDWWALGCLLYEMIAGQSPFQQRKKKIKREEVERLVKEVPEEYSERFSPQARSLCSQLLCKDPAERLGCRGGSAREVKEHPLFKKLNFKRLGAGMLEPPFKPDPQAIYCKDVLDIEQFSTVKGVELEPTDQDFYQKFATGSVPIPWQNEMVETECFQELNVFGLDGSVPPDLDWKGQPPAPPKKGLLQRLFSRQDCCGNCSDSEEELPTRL
UniProt P06239: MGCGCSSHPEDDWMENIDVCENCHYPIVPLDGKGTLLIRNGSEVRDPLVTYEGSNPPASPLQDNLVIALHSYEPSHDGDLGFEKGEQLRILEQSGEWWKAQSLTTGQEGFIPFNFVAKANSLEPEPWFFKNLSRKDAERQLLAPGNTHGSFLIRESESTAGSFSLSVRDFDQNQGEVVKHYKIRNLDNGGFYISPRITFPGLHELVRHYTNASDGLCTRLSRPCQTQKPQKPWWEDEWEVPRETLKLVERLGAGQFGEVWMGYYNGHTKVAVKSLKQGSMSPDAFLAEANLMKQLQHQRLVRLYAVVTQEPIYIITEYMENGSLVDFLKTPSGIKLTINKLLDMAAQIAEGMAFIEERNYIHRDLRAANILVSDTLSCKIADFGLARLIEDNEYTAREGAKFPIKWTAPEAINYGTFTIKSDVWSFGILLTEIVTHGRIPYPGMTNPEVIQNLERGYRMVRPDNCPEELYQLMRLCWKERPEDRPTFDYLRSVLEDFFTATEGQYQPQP
UniProt P28482, whole entry: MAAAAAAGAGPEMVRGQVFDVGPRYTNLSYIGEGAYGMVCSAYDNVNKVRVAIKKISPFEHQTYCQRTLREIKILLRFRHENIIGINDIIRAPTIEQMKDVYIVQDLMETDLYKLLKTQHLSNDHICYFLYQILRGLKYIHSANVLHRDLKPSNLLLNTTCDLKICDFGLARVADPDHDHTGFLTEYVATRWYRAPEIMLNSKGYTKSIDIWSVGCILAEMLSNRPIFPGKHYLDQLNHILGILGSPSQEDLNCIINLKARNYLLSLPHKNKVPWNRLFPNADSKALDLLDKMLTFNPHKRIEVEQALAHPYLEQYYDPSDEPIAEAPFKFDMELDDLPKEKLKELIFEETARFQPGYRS
UniProt Q13188: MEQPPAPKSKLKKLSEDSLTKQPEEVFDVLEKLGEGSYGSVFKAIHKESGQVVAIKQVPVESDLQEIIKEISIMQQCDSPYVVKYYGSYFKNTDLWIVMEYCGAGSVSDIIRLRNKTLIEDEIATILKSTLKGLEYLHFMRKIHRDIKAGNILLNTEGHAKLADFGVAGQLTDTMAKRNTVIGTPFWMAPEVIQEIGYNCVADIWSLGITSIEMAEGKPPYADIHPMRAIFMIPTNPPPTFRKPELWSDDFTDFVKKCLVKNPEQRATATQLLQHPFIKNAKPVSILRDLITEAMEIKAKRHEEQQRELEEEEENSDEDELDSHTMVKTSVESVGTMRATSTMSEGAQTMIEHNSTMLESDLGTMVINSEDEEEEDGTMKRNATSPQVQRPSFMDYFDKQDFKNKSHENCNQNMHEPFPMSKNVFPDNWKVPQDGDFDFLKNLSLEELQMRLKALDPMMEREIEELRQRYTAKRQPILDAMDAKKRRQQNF
UniProt Q86UE8, whole entry, looked up: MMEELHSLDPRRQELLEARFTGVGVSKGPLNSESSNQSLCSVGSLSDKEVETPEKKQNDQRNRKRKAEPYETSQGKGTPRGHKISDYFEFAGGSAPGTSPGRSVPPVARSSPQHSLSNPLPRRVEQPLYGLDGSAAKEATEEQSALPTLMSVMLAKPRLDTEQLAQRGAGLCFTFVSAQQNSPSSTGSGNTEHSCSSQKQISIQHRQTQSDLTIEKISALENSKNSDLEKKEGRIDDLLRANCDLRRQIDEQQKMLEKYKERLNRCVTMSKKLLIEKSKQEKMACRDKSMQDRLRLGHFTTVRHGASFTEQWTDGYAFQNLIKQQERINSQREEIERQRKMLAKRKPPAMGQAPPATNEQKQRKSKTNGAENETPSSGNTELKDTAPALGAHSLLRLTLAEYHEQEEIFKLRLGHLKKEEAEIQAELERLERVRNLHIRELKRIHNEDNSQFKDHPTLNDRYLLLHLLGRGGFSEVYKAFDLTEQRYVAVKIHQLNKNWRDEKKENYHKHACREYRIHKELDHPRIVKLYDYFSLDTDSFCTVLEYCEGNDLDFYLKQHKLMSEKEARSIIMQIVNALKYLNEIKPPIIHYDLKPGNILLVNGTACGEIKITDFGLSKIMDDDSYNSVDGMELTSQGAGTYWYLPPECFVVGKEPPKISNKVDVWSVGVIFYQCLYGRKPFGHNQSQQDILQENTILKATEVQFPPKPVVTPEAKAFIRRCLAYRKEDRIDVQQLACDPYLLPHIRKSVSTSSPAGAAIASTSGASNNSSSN
UniProt Q16620, whole entry, looked up: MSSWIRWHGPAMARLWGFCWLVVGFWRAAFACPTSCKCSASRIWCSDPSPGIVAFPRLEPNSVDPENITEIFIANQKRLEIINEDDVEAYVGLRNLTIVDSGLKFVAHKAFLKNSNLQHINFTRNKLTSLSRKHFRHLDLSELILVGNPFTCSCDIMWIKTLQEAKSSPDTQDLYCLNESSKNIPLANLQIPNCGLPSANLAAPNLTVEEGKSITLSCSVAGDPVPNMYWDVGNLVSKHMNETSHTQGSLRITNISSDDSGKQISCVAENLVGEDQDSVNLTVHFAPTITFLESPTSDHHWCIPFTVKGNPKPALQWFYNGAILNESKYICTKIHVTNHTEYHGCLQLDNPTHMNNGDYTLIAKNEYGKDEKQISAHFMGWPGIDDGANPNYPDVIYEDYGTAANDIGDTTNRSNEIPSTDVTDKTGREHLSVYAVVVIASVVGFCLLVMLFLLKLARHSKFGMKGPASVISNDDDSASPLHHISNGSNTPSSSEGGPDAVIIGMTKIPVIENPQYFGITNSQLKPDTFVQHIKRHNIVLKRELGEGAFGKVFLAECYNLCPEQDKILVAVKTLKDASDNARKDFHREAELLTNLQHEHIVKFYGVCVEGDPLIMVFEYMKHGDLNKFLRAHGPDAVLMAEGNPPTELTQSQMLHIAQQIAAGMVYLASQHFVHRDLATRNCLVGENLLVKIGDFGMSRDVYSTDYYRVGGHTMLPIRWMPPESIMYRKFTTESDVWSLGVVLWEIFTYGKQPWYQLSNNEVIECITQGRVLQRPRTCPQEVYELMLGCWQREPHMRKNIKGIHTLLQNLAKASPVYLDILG
UniProt Q9P286: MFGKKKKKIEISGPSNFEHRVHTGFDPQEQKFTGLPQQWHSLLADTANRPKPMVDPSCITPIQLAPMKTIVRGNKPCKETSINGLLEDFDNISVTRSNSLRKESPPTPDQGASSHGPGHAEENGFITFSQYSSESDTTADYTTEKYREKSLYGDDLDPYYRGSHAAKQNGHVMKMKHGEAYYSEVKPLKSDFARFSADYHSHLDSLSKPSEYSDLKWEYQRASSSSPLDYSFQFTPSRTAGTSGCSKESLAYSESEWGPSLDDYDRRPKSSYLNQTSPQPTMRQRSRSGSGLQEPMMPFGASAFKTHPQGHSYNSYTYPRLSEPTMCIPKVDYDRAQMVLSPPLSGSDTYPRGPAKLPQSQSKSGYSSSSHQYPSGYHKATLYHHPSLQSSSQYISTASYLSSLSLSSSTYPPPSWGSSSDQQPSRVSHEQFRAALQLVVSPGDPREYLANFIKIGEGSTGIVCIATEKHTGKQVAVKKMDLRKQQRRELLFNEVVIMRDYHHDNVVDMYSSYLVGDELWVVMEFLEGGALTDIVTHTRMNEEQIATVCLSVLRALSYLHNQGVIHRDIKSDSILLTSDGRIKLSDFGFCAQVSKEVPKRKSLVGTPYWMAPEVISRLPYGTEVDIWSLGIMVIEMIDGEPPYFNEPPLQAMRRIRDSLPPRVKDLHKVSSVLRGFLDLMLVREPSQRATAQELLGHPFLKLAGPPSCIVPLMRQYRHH
UniProt Q9NQU5: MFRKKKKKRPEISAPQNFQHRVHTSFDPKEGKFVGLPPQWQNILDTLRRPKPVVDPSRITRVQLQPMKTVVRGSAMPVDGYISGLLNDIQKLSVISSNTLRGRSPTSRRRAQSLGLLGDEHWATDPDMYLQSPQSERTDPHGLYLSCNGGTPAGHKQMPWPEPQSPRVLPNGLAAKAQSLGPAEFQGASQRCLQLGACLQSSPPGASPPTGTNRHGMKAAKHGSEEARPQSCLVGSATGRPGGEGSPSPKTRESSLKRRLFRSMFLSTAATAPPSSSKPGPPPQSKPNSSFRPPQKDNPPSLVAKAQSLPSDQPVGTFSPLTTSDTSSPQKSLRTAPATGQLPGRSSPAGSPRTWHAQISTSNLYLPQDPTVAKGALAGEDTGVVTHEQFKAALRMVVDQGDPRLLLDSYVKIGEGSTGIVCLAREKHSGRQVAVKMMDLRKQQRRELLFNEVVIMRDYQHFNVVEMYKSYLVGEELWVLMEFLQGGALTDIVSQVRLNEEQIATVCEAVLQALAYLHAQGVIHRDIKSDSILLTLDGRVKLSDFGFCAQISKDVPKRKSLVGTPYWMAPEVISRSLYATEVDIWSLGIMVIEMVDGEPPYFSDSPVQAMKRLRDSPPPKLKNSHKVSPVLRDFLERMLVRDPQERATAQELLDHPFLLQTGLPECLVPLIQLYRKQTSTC

Tests used:
[1] = target: Cyclin-dependent kinase 2/cyclin E (Homo sapiens) (UniProt P24864+P24941+O96020); details: at 1 µM
[2] = target: T1, Serine/threonine-protein kinase BRSK2 (Homo sapiens) (UniProt Q8IWQ3); details: at 1 µM
T1 sequence (whole entry): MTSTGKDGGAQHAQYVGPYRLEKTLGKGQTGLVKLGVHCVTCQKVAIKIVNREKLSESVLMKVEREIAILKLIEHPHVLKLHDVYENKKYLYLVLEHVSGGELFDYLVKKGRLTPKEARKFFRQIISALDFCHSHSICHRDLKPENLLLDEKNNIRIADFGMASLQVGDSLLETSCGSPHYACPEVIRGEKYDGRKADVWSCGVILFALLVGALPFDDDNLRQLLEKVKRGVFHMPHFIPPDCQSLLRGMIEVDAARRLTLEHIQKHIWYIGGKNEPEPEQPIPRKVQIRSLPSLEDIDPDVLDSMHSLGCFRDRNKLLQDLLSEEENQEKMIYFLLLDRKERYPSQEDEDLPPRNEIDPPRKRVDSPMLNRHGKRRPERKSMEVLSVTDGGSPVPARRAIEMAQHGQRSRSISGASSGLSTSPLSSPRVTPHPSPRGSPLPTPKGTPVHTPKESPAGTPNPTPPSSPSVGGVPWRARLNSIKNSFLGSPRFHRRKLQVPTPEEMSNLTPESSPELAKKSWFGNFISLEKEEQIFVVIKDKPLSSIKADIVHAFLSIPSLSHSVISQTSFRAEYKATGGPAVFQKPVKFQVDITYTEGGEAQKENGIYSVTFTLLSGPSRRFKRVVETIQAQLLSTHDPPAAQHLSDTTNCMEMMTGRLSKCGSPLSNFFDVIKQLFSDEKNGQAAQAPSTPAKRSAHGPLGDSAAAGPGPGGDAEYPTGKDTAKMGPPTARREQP

[3] = target: Protein-tyrosine kinase 6 (Homo sapiens) (UniProt Q13882); details: at 10 µM
[4] = target: Ephrin type-A receptor 4 (Homo sapiens) (UniProt P54764); details: at 10 µM
[5] = target: Ephrin type-B receptor 3 (Homo sapiens) (UniProt P54753); details: at 10 µM
[6] = target: G protein-coupled receptor kinase 6 (Homo sapiens) (UniProt P43250); details: at 10 µM
[7] = target: T2, Macrophage-stimulating protein receptor (Homo sapiens) (UniProt Q04912); details: at 1 µM
T2 sequence (whole entry): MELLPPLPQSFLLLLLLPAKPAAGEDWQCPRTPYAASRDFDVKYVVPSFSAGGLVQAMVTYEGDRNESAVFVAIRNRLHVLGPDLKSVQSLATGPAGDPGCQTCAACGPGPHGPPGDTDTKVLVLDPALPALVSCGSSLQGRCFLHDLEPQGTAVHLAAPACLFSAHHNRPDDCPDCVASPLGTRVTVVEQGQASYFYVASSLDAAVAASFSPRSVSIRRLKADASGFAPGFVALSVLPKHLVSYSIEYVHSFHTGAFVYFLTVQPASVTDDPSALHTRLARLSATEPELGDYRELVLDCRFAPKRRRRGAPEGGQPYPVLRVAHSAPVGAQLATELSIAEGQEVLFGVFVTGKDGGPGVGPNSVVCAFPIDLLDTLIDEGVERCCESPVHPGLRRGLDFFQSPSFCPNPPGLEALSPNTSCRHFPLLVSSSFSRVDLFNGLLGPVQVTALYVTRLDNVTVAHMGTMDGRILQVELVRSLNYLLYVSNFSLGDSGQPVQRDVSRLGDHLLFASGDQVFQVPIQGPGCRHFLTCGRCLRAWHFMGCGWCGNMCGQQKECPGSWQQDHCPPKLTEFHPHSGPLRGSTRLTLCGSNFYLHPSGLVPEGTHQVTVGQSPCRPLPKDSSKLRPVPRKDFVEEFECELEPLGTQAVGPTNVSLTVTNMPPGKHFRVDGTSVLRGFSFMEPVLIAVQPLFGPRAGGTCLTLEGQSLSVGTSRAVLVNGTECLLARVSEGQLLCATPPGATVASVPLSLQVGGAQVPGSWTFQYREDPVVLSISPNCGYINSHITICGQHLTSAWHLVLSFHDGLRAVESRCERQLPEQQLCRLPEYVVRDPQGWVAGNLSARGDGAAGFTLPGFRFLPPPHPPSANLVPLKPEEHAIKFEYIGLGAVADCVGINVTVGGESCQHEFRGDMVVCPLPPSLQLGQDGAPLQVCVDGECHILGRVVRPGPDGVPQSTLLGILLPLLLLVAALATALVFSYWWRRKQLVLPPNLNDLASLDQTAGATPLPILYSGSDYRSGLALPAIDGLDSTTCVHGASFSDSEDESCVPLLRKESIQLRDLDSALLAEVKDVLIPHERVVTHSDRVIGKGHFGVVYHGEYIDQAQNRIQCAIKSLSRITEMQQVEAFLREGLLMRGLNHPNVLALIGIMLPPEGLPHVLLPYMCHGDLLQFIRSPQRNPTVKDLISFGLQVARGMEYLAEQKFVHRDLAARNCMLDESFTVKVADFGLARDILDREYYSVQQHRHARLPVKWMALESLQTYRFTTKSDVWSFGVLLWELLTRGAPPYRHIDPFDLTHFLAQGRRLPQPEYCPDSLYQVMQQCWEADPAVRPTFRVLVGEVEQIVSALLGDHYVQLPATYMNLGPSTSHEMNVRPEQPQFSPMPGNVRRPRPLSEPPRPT

[8] = target: T2, Macrophage-stimulating protein receptor (Homo sapiens); details: at 10 µM
[9] = target: Tyrosine-protein kinase Lck (Homo sapiens) (UniProt P06239); details: at 1 µM
[10] = target: Mitogen-activated protein kinase 1 (Homo sapiens) (UniProt P28482); details: at 1 µM
[11] = target: Serine/threonine-protein kinase 3 (Homo sapiens) (UniProt Q13188); details: at 10 µM
[12] = target: Serine/threonine-protein kinase tousled-like 2 (Homo sapiens) (UniProt Q86UE8); details: at 10 µM
[13] = target: BDNF/NT-3 growth factors receptor (Homo sapiens) (UniProt Q16620); details: at 1 µM
[14] = target: T3, Serine/threonine-protein kinase ULK2 (Homo sapiens) (UniProt Q8IYT8); details: at 1 µM
T3 sequence (whole entry): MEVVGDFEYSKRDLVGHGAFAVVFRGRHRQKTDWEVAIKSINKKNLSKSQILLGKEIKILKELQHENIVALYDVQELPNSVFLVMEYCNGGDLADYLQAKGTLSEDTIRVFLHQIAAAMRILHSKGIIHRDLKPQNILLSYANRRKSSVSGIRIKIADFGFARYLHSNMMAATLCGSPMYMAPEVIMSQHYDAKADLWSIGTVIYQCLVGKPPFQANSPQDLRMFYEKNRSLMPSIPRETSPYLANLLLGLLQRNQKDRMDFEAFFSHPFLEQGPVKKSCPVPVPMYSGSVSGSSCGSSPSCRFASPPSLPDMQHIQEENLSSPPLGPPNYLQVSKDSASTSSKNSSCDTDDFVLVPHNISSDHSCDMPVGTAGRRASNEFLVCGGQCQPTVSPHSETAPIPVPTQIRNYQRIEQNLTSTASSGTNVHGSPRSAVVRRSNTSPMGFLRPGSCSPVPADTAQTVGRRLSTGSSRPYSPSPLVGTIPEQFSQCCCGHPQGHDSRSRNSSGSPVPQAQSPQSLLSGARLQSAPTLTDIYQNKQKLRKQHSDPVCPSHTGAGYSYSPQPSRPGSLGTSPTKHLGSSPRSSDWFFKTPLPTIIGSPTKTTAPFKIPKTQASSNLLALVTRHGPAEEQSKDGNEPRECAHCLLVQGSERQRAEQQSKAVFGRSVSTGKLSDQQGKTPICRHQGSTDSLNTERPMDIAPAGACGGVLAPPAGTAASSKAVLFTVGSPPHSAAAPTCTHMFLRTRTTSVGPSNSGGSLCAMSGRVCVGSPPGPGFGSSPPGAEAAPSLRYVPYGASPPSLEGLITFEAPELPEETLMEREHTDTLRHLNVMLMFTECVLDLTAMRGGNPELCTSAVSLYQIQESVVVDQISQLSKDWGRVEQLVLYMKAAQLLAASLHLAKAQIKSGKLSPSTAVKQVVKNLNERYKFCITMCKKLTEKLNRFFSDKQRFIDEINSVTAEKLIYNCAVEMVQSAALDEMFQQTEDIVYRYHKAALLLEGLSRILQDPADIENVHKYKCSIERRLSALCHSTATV

[15] = target: Proto-oncogene tyrosine-protein kinase Src (Homo sapiens) (UniProt P12931); details: at 1 µM
[16] = target: T4, Serine/threonine-protein kinase NLK (Homo sapiens) (UniProt Q9UBE8); details: at 1 µM
T4 sequence (whole entry): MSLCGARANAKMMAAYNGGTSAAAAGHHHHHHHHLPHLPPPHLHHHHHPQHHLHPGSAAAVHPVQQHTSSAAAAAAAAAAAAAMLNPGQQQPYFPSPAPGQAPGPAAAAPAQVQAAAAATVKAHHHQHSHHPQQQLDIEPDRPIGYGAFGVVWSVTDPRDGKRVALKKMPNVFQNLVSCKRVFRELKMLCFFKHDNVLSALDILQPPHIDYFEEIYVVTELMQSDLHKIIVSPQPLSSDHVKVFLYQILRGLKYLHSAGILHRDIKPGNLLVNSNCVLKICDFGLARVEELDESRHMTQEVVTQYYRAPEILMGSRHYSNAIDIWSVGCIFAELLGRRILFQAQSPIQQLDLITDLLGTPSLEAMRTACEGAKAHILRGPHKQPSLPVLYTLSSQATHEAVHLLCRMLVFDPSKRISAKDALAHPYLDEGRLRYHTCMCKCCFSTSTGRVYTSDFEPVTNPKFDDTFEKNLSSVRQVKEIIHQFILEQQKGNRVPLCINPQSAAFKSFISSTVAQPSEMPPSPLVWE

[17] = target: Serine/threonine-protein kinase PAK 5 (Homo sapiens) (UniProt Q9P286); details: at 10 µM
[18] = target: Serine/threonine-protein kinase PAK 6 (Homo sapiens) (UniProt Q9NQU5); details: at 10 µM
[19] = target: Platelet-derived growth factor receptor alpha (Homo sapiens) (UniProt P16234); details: at 1 µM
[20] = target: Platelet-derived growth factor receptor alpha (Homo sapiens) (UniProt P16234); details: at 10 µM

O=C1Cc2c([nH]c3ccc([N+](=O)[O-])cc23)-c2ccccc2N1
residual activity [1]: 15%

CNc1cc2c(Nc3cccc(Br)c3)ncnc2cn1
residual activity [2]: 84%

Cn1nc2c3c(cccc31)C(=O)c1ccccc1-2
residual activity [3]: 115% | residual activity [4]: 116% | residual activity [5]: 114% | residual activity [6]: 78% | residual activity [7]: 82% | residual activity [8]: 78% | residual activity [9]: 78% | residual activity [10]: 109% | residual activity [11]: 78% | residual activity [12]: 78% | residual activity [13]: 78% | residual activity [14]: 116% | residual activity [15]: 114% | residual activity [16]: 99% | residual activity [17]: 78% | residual activity [18]: 78% | residual activity [19]: 113% | residual activity [20]: 113%
